{"source": "ChEMBL document CHEMBL1139362", "about": "“Discovery of human macrophage migration inhibitory factor (MIF)-CD74 antagonists via virtual screening” (J Med Chem, 2009)", "biological_target": "T1, Macrophage migration inhibitory factor (Homo sapiens, UniProt P14174)", "T1 sequence (P14174 whole entry)": "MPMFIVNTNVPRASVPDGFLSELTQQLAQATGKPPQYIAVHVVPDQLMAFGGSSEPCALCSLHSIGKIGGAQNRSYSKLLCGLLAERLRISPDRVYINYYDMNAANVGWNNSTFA", "experiment": "Inhibition of human recombinant MIF tautomerase", "data": [{"compound": "O=C(COC(=O)c1cc2ccc(O)cc2oc1=O)c1ccccc1", "values": [{"measurement": "Ki", "value": 1600, "unit": "nM"}]}]}
